Test system: wild-type HepG2 cells
Assay: HepG2 cytotoxicity assay (CellTiter-Glo, cellular ATP)

With `O=[N+]([O-])c1nonc1Cn1nnc2ccccc21` the “Avg. Max % Resp.” value (HepG2 cytotoxicity, maximum response) was 36.34% and the CC50 (read-out: HepG2 CC50, HepG2 cells, CellTiter-Glo, 10 concentrations 3 times) was greater than 24.8 µM.
